Reference: patent US10941162B2, “Heterocyclic compounds and uses thereof” (Infinity Pharmaceuticals, Inc., priority 2014, dated 2021)
pIC50: −log10 of the molar value.

Sequences of proteins named here, by UniProt entry; tags and fusion partners are left off.
UniProt P42338, whole entry: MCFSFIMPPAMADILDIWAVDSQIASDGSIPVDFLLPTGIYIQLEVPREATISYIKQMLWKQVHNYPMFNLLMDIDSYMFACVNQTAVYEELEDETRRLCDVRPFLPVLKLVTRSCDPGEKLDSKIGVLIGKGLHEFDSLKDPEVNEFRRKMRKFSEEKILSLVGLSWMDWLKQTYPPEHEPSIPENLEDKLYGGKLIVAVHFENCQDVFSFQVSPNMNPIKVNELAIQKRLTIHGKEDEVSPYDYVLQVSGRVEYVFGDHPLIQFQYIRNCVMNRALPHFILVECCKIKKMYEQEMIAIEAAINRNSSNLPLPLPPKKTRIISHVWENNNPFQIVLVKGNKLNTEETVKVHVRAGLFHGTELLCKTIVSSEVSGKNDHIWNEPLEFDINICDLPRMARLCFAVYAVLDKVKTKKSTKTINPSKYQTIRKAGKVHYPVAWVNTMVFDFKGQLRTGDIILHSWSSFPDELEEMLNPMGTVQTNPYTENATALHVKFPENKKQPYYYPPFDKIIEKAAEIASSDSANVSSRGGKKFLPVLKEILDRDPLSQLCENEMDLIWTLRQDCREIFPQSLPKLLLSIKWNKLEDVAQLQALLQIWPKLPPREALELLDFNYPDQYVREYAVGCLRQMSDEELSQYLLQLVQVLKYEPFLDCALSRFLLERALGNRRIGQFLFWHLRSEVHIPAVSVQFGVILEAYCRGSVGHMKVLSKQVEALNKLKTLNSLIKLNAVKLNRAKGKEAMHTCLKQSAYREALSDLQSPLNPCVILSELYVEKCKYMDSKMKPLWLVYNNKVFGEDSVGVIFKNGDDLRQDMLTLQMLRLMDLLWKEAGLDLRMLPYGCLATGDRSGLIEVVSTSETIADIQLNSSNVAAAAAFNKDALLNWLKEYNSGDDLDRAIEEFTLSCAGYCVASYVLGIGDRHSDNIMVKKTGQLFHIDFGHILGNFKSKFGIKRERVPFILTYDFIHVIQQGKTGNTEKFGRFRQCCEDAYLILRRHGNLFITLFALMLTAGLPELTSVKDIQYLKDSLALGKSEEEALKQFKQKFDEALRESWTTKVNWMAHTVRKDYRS
UniProt Q9JHG7, whole entry: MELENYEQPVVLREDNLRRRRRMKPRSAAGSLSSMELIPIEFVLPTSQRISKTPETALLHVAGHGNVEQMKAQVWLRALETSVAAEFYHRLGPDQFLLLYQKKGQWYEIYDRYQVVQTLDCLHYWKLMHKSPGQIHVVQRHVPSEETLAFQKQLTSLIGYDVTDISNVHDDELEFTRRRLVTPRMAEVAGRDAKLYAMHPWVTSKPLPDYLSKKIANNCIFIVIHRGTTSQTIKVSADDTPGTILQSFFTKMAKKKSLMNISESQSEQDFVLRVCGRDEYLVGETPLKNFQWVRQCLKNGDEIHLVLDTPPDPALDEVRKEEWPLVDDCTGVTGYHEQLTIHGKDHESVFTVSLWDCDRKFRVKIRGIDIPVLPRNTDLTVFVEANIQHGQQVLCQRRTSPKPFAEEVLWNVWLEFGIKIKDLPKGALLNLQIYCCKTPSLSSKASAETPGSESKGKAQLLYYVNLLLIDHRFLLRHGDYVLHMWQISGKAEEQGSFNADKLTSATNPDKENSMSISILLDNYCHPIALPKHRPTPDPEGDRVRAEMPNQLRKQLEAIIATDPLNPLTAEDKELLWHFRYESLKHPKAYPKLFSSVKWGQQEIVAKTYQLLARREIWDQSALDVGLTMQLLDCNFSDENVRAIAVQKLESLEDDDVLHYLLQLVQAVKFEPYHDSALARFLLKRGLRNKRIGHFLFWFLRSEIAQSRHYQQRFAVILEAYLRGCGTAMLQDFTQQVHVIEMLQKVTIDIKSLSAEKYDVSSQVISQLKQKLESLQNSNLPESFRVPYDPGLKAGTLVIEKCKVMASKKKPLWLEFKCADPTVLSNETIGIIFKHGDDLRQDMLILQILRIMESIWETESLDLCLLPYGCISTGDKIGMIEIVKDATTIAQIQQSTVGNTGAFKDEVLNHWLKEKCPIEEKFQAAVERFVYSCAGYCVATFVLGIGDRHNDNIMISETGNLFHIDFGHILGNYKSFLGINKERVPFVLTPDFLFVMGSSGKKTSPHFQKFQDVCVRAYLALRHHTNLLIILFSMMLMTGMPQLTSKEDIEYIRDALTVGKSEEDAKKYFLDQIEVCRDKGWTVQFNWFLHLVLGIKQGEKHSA
UniProt P48736, whole entry: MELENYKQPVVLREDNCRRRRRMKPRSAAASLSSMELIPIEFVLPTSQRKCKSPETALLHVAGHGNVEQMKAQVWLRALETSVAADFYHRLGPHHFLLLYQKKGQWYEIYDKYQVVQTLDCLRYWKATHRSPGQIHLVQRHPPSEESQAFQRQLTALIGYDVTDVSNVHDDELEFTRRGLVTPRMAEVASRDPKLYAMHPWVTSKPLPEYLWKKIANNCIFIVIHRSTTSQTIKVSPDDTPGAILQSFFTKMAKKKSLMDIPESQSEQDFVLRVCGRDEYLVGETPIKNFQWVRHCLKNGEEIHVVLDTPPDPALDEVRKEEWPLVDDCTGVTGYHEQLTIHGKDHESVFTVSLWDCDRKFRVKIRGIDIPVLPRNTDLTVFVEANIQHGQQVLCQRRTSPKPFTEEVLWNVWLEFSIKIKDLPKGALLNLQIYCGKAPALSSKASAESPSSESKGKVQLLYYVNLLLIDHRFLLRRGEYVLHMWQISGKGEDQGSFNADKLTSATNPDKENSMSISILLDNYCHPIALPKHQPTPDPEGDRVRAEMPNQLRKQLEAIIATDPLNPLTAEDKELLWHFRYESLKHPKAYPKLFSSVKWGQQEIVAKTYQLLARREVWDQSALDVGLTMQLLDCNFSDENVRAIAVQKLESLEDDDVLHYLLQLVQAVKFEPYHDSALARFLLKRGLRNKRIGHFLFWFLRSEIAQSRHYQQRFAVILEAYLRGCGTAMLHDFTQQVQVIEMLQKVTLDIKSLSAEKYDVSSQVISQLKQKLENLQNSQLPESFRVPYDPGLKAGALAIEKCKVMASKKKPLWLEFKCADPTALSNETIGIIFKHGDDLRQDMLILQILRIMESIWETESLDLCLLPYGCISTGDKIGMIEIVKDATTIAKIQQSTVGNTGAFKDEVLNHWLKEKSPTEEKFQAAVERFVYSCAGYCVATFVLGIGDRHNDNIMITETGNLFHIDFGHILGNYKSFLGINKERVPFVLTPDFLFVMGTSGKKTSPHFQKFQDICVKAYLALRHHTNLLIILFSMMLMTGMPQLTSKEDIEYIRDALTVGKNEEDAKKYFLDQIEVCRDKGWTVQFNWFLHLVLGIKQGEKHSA

Key:
[1] = biological target: PI3K β (Homo sapiens, UniProt P42338); assay: PI3-Kinase in vitro IC50 assay, β isoform; format: biochemical; conditions: read-out: PI3K β IC50
Description: A PI3-Kinase HTRF® assay kit (cat No. 33-016) purchased from Millipore Corporation is used to screen compounds provided herein. This assay uses specific, high affinity binding of the GRP1 pleckstrin homology (PH) domain to PIP3, the product of a Class 1A or 1B PI3 Kinase acting on its physiological substrate PIP2. During the detection phase of the assay, a complex is generated between the GST-tagged PH domain and biotinylated short chain PIP3. The biotinylated PIP3 and the GST-tagged PH domain recruited fluorophores (Streptavidin-Allophycocyanin and Europium-labeled anti-GST respectively) to form the fluorescence resonance energy transfer (FRET) architecture, generating a stable time-resolved FRET signal. The FRET complex is disrupted in a competitive manner by non-biotinylated PIP3, a product formed in the PI3 Kinase assay. PI3 Kinase α, β, γ or δ activity is assayed using the PI3 Kinase HTRF®, assay kit (catalogue No. 33-016) purchased from Millipore Corporation. […] The assay is carried out in 384-well format and detected using a Perkin Elmer EnVision Xcite Multilabel Reader. […] Plates are then read on Envision plate reader in luminescence mode. Data are converted to % inhibition using the following equation below: [formula] where S is the sample luminescence, Pos is a positive control without added PI3K, Neg is the negative control without added compound. […]

[2] = biological target: p110 γ (Mus musculus (Mouse), UniProt Q9JHG7); assay: Raw264.7 p110 γ assay (PI3K-γ selective cellular assay, phospho-AKT); conditions: ratio of RAJI p110 δ IC50 to Raw264.7 p110 γ IC50
Description: A compound's ability in selectively inhibiting PI3K-γ can be assessed using RAW264.7 macrophages. Briefly, serum-starved RAW264.7 cells are stimulated with a known GPCR agonist C5a. See, e.g., Camps et al., Nature Medicine (2005) 11(9):936-943. Cells can be treated with test compounds prior to, simultaneously with, or subsequent to the stimulation by C5a. RAW 264.7 cells respond to the complement component fragment C5a through activation of the C5a receptor, and the C5a receptor activates macrophages and induces cell migration. Test compounds' ability to inhibit C5a-mediated AKT phosphorylation is indicative of selective inhibition of PI3K-γ. Thus, by monitoring the reduction of phospho-AKT in stimulated RAW 264.7 cells (using for example, phospho-AKT antibodies), a compound's potential efficacy in selectively inhibiting PI3Kγ can be assessed.
Certain compounds provided herein were tested in RAW 264.7 cell model using procedures as described above.

[3] = biological target: PI3K γ (Homo sapiens (Human), UniProt P48736); assay: PI3-Kinase in vitro IC50 assay, γ isoform; conditions: ratio of PI3K δ IC50 to PI3K γ IC50
Description: A PI3-Kinase HTRF® assay kit (cat No. 33-016) purchased from Millipore Corporation is used to screen compounds provided herein. This assay uses specific, high affinity binding of the GRP1 pleckstrin homology (PH) domain to PIP3, the product of a Class 1A or 1B PI3 Kinase acting on its physiological substrate PIP2. During the detection phase of the assay, a complex is generated between the GST-tagged PH domain and biotinylated short chain PIP3. The biotinylated PIP3 and the GST-tagged PH domain recruited fluorophores (Streptavidin-Allophycocyanin and Europium-labeled anti-GST respectively) to form the fluorescence resonance energy transfer (FRET) architecture, generating a stable time-resolved FRET signal. […]
PI3 Kinase α, β, γ or δ activity is assayed using the PI3 Kinase HTRF®, assay kit (catalogue No. 33-016) purchased from Millipore Corporation. […] The assay is carried out in 384-well format and detected using a Perkin Elmer EnVision Xcite Multilabel Reader. […]
Promega ADP-Glo Max assay kit (Cat. No. V7002) can be utilized to determine IC50 values for α, β, δ and γ isoforms of human Class I PI3 kinases (Millipore). […] Plates are then read on Envision plate reader in luminescence mode. […]
[formula] where S is the sample luminescence, Pos is a positive control without added PI3K, Neg is the negative control without added compound. […]

Cc1nn(C)cc1C#Cc1cccc2cc(C(C)NC(=O)c3c(N)nn4cccnc34)c(-c3ccccc3)nc12 (stereo not drawn)
pIC50 [1]: 5.00 to 5.30 | RAJI δ/Raw264.7 γ IC50 (selectivity) [2]: W (W = >1 to <10) | PI3K δ/PI3K γ IC50 (selectivity) [3]: W (W = >1 to <10)
